Tested on: C57BL6 mice
Conditions: percent decrease in lymphocyte counts at the MTD or highest dose tested, relative to wortmannin as 1.0

For `COC[C@H]1OC(=O)C(=CN(C)Cc2ccccc2)C2=C(O)C(=O)C3=C([C@H](OC(C)=O)C[C@]4(C)C(=O)CC[C@@H]34)[C@]21C` [DJM2-181, Acetic acid 4-[(benzylmethylamino)methylene]-6-hydroxy-1α-methoxymethyl-10β,13β-dimethyl-3,7,17-trioxo-1,3,4,7,10,11β,12,13,14α,15,16,17-dodecahydro-2-oxa-cyclopenta[a]phenanthren-11-yl ester], which “Lymphocyte toxicity relative to wortmannin” value is on record?
Its value is 1.9.

From EP1914230B1 (The Arizona Board of Regents on behalf of the University of …, priority 2001, dated 2003)
